Values of other authors as cited in article PMC6943441, “The Meta-Position of Phe^4 in Leu-Enkephalin Regulates Potency, Selectivity, Functional Activity, and Signaling Bias at the Delta and Mu Opioid Receptors” (Molecules, 2019).

What was measured:
δOR [1] = target: T1, δOR (Homo sapiens, UniProt P41143)
δOR [2] = target: T1, δOR; conditions: read-out: cAMP potency

## Cc1cc(O)cc(C)c1C[C@H](N)C(=O)N1Cc2ccccc2C[C@H]1C(=O)N[C@@H](CC(=O)O)c1nc2ccccc2[nH]1
δOR [1]
  β-arrestin 2 efficacy: 60%
δOR [1]; read-out: β-arrestin 2 potency
  EC50: 0.02 µM
δOR [2]
  EC50: 0.0004 µM

Like-named read-outs stand apart in the source and are kept apart here.
